# Assay results published in patent publication US20260384421A1, “NOVEL COMPOUNDS THAT CAN BE USED AS THERAPEUTIC AGENTS” (published 2026).
# Columns and labels:
# HPEKp cells = experiment: proliferation assay with human epidermal keratinocyte progenitors (HPEKp), selectivity versus MDA-MB-231
# Description: (§1) These hyperproliferative processes can be benign or malignant and include hyperplasia, neoplasia, cancer and pre-cancerous lesions, and metastases. The antiproliferative activities of compounds falling under general formula (I) were investigated on human primary epidermal keratinocytes (HPEK) and human, murine and canine cell lines derived from hyperproliferative tissue or different cancer types, including MDA-MB-231, ZR-75-30, HCC-1395, HCC-1937, and T-47D all originating from cancer of the breast, JURKAT, RPMI-8402, LOUCY, TANQUE, REC-1, HL-60, NB-4 all originating from different types of blood cancer including lymphoma and leukemia of T-cells, B-cells and myeloid cells, TT originating from cancer of the neuroendocrine system, HeLa originating from cancer of the cervix, 23132/87, SW-948, and HCT-116 all originating from cancer of the gastrointestinal tract including stomach and colon, BHY originating from cancer of the mucosal epithelium, A-431 originating from cancer of the skin, HEP-G2 originating from cancer of the liver, NCI-H460 and A-549 both originating from cancer of the lung, PANC-1 originating from cancer of the pancreas, U-87 MG originating from cancer of the brain, A-375 and RVH-421 both originating from cancer of melanocytes, SW-1353 originating from cancer of bone-derived chondrocytes, C2C12 a mouse cell line originating from hyperproliferative muscle progenitor cells, LL/2 a mouse cell line originating from cancer of the lung, CF21.T a dog cell line originating from cancer of the connective tissue. To this end, according cells were seeded into 96-well plates (CORNING #3598) suitable for fluorescence assays at following initial cell numbers: 1000 cells per well for HPEK; 3000 cells per well for MDA-MB-231, 8000 cells per well for ZR-75-30, 1500 cells per well for HCC-1395, 1500 cells per well for HCC-1937, 3000 cells per well for T-47D, 1500 cells per well for JURKAT, 5000 cells per well for RPMI-8402, 9000 cells per well for LOUCY, 1500 cells per well for TANQUE, 9000 cells per well for REC-1, 1000 cells per well for HL-60, 1000 cells per well for NB-4, 9000 cells per well for TT, 2000 cells per well for HeLa, 2000 cells per well for 23132/87, 9000 cells per well for SW-948, 700 cells per well for HCT-116, 1500 cells per well for BHY, 700 cells per well for A-431, 1500 cells per well for HEP-G2, 500 cells per well for NCI-H460, 1000 cells per well for A-549, 1500 cells per well for PANC-1, 2500 cells per well for U-87 MG, 700 cells per well for A-375, 1500 cells per well for RVH-421, 2000 cells per well for SW-1353, 500 cells per well for C2C12, 500 cells per well for LL/2, and 3000 cells per well for CF21.T. In a volume of 90 μL per well of culture medium the cells were treated with compounds at indicated final concentrations by adding 10 μL per well of 10× compound working solutions from 1:100 pre-diluted 1000× compound DMSO stock-solutions in H2O (Water For Injection, WFI, Fisher Scientific, Gibco™ #A12873) or with the empty carrier DMSO (AppliChem, #A3672) at 0.1% v/v as control yielding a final volume of 100 μL per well. At day 5 after starting the treatments the cells were subjected to the alamarBlue® Proliferation Assay (Bio-Rad Serotec GmbH, BUF012B) according to the protocol of the manufacturer. The readout was taken with a multi-well plate-reader (Tecan Spark®) in the fluorescence mode with applying a filter for excitation at 560 nm (band width 10 nm) and for emission at 590 nm (band width 10 nm). Treatment for maximum proliferation inhibition with the commercial cytotoxic compound (S)-(+)-camptothecin (Fluorochem #M01564) at a concentration of 10 μM was included on each plate for assay quality control. Some of the test compounds of the present invention may have been obtained and applied as their salt forms.
# (§2) The assays were performed in duplicate or more replicates of independent single experiments each containing a three- to six-fold replicate for every condition. […]
# HEP-G2 cells = experiment: alamarBlue proliferation assay with HEP-G2 cells; conditions: read-out: Activity on HEP-G2: IC50, RPMI 1640 medium, 10% FBS
# Description: as §1, §2
# A-431 cells = experiment: alamarBlue proliferation assay with A-431 cells; conditions: read-out: Activity on A-431: IC50, DMEM medium, 10% FBS
# Description: as §1, §2
# MDA-MB-231 cells = experiment: alamarBlue proliferation assay with MDA-MB-231 cells (glucose-free Leibovitz's L-15 medium)
# Description: as §1, §2
# NCI-H460 cells = experiment: alamarBlue proliferation assay with NCI-H460 cells; conditions: read-out: Activity on NCI-H460: IC50, RPMI 1640 medium, 10% FBS
# Description: as §1, §2
# A-549 cells = experiment: alamarBlue proliferation assay with A-549 cells; conditions: read-out: Activity on A-549: IC50, DMEM medium, 10% FBS
# Description: as §1, §2
# NB-4 cells = experiment: alamarBlue proliferation assay with NB-4 cells; conditions: read-out: Activity on NB-4: IC50, RPMI 1640 medium, 10% FBS
# Description: as §1, §2
# HCT-116 cells = experiment: alamarBlue proliferation assay with HCT-116 cells; conditions: read-out: Activity on HCT-116: IC50, McCoy's 5A medium, 10% FBS
# Description: as §1, §2
# BHY cells = experiment: alamarBlue proliferation assay with BHY cells; conditions: read-out: Activity on BHY: IC50, DMEM medium, 10% FBS
# Description: as §1, §2
# LL/2 cells = experiment: alamarBlue proliferation assay with LL/2 cells; conditions: read-out: Activity on LL/2: IC50; LL/2 murine Lewis lung carcinoma cells, DMEM medium, 10% FBS
# Description: as §1, §2
# TANQUE cells = experiment: alamarBlue proliferation assay with TANQUE cells; conditions: read-out: Activity on TANOUE: IC50, RPMI 1640 medium, 10% FBS
# Description: as §1, §2
# [1] = read-out: Activity (HPEK): antiproliferative activity on HPEK cells, IC50 category, HPEK cells cultivated in CnT-Prime medium
# [2] = read-out: Activity (MDA): antiproliferative activity on MDA-MB-231 cells, IC50 category, MDA-MB-231 cells cultivated in glucose-free Leibovitz's L-15 medium
# [3] = read-out: Activity on MDA-MB-231 (IC50), glucose-free Leibovitz's L-15, 10% FBS, day 5, alamarBlue
# [4] = read-out: Activity (HPEK), HPEK cells (HPEKp), antiproliferative activity, class by IC50
# [5] = read-out: Activity (MDA), MDA-MB-231 cells, antiproliferative activity, class by IC50
Structure (SMILES),IC50 (HPEKp cells; [1]) [µM],IC50 (HEP-G2 cells) [µM],IC50 (A-431 cells) [µM],IC50 (MDA-MB-231 cells; [2]) [µM],IC50 (MDA-MB-231 cells; [3]) [µM],IC50 (NCI-H460 cells) [µM],IC50 (HPEKp cells; [4]) [µM],IC50 (A-549 cells) [µM],IC50 (MDA-MB-231 cells; [5]) [µM],IC50 (NB-4 cells) [µM],IC50 (HCT-116 cells) [µM],IC50 (BHY cells) [µM],IC50 (LL/2 cells) [µM],IC50 (TANQUE cells) [µM]
O=C(c1ccc(Oc2ccc(C3CCC4(CC3)OCCO4)cc2CO)cc1)N1CCN(Cc2cccc3cccnc23)CC1,< 10,≤ 1,≤ 20,< 1,≤ 0.2,,,,,,,,,
O=Cc1cc(C2CCC3(CC2)OCCO3)ccc1Oc1ccc(C(=O)N2CCN(Cc3ccc(C(F)(F)F)cc3)CC2)cc1,< 5,≤ 0.2,≤ 0.2,< 1,≤ 0.2,,,,,,,,,
CC(C)N1CCN(C(=O)c2ccc(Oc3ccc(C4CCC5(CC4)OCCO5)cc3C=O)cc2)CC1,,≤ 5,≤ 1,,≤ 5,,,,,,,,,
O=C(c1ccc(Oc2ccc(C3CCC4(CC3)OCCO4)cc2CO)cc1)N1CCN(CCc2ccccc2)CC1,> 10,≤ 5,≤ 5,< 5,≤ 5,,,,,,,,,
C#CCN1CCN(C(=O)c2ccc(Oc3ccc(C4CCC(=O)CC4)cc3CO)cc2)CC1,> 10,,≤ 20,< 5,≤ 5,,,,,,,,,
O=Cc1cc(C2CCC3(CC2)OCCO3)ccc1Oc1ccc(C(=O)N2CCN(CCO)CC2)cc1,,≤ 5,≤ 1,,≤ 5,,,,,,,,,
COc1ccc(CN2CCN(C(=O)c3ccc(Oc4ccc(C5CCCCC5)cc4C=O)cc3)CC2)cc1,,≤ 0.2,,,≤ 0.2,≤ 1,< 5,≤ 0.2,< 1,,,,,
CC(C)N1CCN(C(=O)c2ccc(Oc3ccc(C4CCC5(CC4)OCCO5)cc3CO)cc2)CC1,> 10,≤ 20,≤ 20,< 5,≤ 5,,,,,,,,,
O=C(c1ccc(Oc2ccc(C3CCC4(CC3)OCCO4)cc2CO)cc1)N1CCN(Cc2cccc3ccccc23)CC1,< 5,≤ 5,≤ 5,< 1,≤ 1,,,,,,,,,
O=Cc1cc(C2CCC3(CC2)OCCO3)ccc1Oc1ccc(C(=O)N2CCN(CCc3ccccc3)CC2)cc1,,≤ 20,≤ 5,,≤ 5,,,,,,,,,
O=C(c1ccc(Oc2ccc(C3CCCCC3)cc2CO)cc1)N1CCN(Cc2ccccc2)CC1,,≤ 1,,,≤ 0.2,≤ 5,< 10,≤ 0.2,< 1,,,,,
CC(=O)Oc1ccc(CN2CCN(C(=O)c3ccc(Oc4ccc(C5CCC6(CC5)OCCO6)cc4CO)cc3)CC2)cc1,< 10,,,< 5,≤ 5,≤ 20,,,,,,,,
Nc1ccc(CN2CCN(C(=O)c3ccc(Oc4ccc(C5CCC6(CC5)OCCO6)cc4C=O)cc3)CC2)cc1,< 10,,,< 1,≤ 0.2,≤ 20,,,,,,,,
O=C(c1ccc(Oc2ccc(C3CCC4(CC3)OCCO4)cc2CO)cc1)N1CCN(CC2CCCC2)CC1,> 10,≤ 5,≤ 5,< 5,≤ 5,,,,,≤ 5,≤ 5,≤ 5,≤ 5,≤ 5
O=C(c1ccc(Oc2ccc(C3CCCCC3)cc2CO)cn1)N1CCN(Cc2ccc(Cl)cc2)CC1,,≤ 0.2,,,≤ 0.2,≤ 0.2,< 5,≤ 0.2,< 1,≤ 0.2,≤ 0.2,≤ 0.2,≤ 5,≤ 0.2
C#CCN1CCN(C(=O)c2ccc(Oc3ccc(C4CCC5(CC4)OCCO5)cc3CO)cc2)CC1,> 10,≤ 20,≤ 20,< 5,≤ 5,,,,,,,,,
O=Cc1cc(C2CCC3(CCCC3)CC2)ccc1Oc1ccc(C(=O)N2CCN(Cc3ccccc3)CC2)cc1,,≤ 1,≤ 5,,≤ 0.2,,,,,,,,,
O=C(c1ccc(Oc2ccc(C3CCC4(CC3)OCCO4)cc2CO)cc1)N1CCN(Cc2ccc(Cl)cc2)C2CCCCC21 (stereo not drawn),,≤ 5,,,≤ 5,,< 10,≤ 5,< 1,≤ 5,≤ 5,≤ 5,≤ 5,≤ 5
COc1cc(C2CCCCC2)cc(CO)c1Oc1ccc(C(=O)N2CCN(Cc3ccccc3)CC2)cc1,> 10,≤ 5,≤ 5,< 5,≤ 5,,,,,,,,,

# Like-named read-outs stand apart in the source and are kept apart here.
